In ChEMBL document CHEMBL1135393, “Design, synthesis, and discovery of novel trans-stilbene analogues as potent and selective human cytochrome P450 1B1 inhibitors” (J Med Chem, 2002):

Experiments:
Cytochrome P450 1B1 = target: T1, Cytochrome P450 1B1 (Homo sapiens, UniProt Q16678); test: Inhibition of ethoxyresorufin O-deethylation (EROD) in bicistronic bacterial membranes expressing human cytochrome P450 1B1; assay type: ADME, cell membranes
T1 sequence (Q16678 whole entry): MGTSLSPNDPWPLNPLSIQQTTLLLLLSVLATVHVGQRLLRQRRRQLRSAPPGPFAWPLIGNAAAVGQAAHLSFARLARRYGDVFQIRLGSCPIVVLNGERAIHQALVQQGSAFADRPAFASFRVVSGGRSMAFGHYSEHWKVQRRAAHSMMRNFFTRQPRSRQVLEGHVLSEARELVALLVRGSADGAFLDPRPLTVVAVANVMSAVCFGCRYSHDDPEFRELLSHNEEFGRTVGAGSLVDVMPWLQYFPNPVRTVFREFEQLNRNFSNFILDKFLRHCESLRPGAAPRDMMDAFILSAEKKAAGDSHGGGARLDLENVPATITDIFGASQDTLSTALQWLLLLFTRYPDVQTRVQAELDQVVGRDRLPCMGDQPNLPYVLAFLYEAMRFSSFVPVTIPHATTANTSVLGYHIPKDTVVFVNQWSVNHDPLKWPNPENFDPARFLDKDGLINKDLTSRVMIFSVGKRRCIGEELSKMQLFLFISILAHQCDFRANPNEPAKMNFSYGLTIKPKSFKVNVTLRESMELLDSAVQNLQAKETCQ

Cytochrome P450 1A1 = target: T2, Cytochrome P450 1A1 (Homo sapiens, UniProt P04798); test: Inhibition of ethoxyresorufin O-deethylation (EROD) in bicistronic bacterial membranes epressing human cytochrome P450 1A1; assay type: ADME, cell membranes
T2 sequence (P04798 whole entry): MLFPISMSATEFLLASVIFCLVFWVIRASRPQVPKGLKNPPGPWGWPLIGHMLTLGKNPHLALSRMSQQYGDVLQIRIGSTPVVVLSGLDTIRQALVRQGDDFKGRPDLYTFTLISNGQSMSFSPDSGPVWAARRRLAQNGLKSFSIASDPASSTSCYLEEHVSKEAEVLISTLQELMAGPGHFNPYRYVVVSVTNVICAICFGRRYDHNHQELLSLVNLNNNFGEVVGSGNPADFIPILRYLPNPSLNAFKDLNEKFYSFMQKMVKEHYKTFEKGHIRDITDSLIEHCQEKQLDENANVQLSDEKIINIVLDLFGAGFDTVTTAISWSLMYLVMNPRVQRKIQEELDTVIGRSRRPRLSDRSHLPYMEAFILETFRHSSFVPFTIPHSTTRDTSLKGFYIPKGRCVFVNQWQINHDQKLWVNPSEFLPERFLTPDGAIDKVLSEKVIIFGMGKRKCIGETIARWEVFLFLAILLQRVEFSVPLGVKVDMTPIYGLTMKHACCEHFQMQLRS

COc1cc(/C=C/c2ccc(OC)cc2OC)cc(OC)c1
IC50 (Cytochrome P450 1B1): 0.006 µM | IC50 (Cytochrome P450 1A1): 0.3 µM
